Measurements from patent publication US20240174622A1, “COMPOUND AND RADIOACTIVE LABELING COMPOUND” (NIHON MEDI-PHYSICS CO., LTD., priority 2021, published 2024).

Chains of the proteins cited; added tags and fusions are not shown. Residues count along the entry.
UniProt P02768, 25-609: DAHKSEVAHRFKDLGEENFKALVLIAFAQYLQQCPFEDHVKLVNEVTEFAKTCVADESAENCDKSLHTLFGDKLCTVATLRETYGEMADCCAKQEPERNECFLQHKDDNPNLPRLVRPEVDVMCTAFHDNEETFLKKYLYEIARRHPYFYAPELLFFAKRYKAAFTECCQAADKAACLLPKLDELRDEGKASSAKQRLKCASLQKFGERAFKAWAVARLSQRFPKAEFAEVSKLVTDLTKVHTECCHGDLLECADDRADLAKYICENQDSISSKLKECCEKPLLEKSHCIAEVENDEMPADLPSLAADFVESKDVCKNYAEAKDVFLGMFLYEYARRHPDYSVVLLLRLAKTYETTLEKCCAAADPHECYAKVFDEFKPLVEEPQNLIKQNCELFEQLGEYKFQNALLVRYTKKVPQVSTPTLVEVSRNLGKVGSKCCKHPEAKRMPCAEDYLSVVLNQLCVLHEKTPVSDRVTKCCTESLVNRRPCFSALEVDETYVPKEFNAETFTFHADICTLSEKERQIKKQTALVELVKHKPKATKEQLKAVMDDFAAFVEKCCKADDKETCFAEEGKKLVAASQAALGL

Assays:
[1] = molecular target: human serum albumin (HSA) (Homo sapiens, UniProt P02768); assay: Evaluation of binding to albumin (HSA solution, PBS control)
Description: Thereafter, the reaction liquids were added to a spin column (Sephadex G-100; manufactured by Cytiva), and centrifuged at 1500×g at 4° C. for 2 minutes. After separation, the radioactivity for each of the column and the eluate was measured with a gamma counter.
When a compound to be evaluated binds to albumin to form a composite, the compound passes through the column because of the increased molecular size.
As in Examples described above, PBS and human albumin were used to evaluate binding to albumin.
Thereafter, the reaction liquid was added to a spin column (Sephadex G-50; manufactured by Cytiva), and centrifuged at 1500×g at 4° C. for 2 minutes. After separation, the radioactivity of the column and the eluate was measured with a gamma counter.

[2] = system: LNCaP tumor-transplanted mouse; assay: Internal radioactivity distribution using LNCaP tumor-transplanted mouse; type: in vivo; details: 24 hours after administration
Description: The animal test was performed in compliance with the guidelines of Kyoto University Animal Experiment Committee. Male CB17/IcrJcl-Prkdc^scid mice were purchased from CLEA Japan, Inc. The animals were kept under 12 h/12 h, day/night cycle conditions and fed ad libitum with food and water. LNCaP cells (1.0×10^7 cells/mouse) or PC-3 cells (1.0×10^7 cells/mouse) were suspended in a mixture of PBS and Matrigel manufactured by Corning Life Sciences (1:1, 150 μL) and the suspension was subcutaneously transplanted to the right shoulder of mice under isoflurane anesthesia. Thereafter, the mice were kept for 40 to 60 days.
LNCaP or PC-3 tumor-implanted mice were administered saline solutions (185 kBq, 100 μL) of [^111In]In-PSMA-DA1 or [^111In]In-PSMA-DB from the tail vein (n=3 each). […] Thereafter, blood and each organ were recovered, and the mass and radioactivity of the organs were measured.
The percentage (% ID) of the radioactivity amount to the administered radioactivity amount (injected dose) is shown as the value (% ID/g) divided by the blood mass or the organ mass (g).
LNCaP tumor-implanted mice prepared by the same method as in Example 1-1 were administered a saline solution (241 kBq/100 μL) of [^111In]In-PtDA from the tail vein (n=3). […] Thereafter, blood and each organ were recovered, and the mass and radioactivity of the organs were measured. […]

O=C(O)CC[C@H](NC(=O)N[C@@H](CCCCNC(=O)[C@H](Cc1ccc2ccccc2c1)NC(=O)[C@H]1CC[C@H](CNC(=O)CCC(C(=O)O)N2CCN(CC(=O)O)CCN(C(CCC(=O)N[C@@H](CCCCNC(=O)CCCc3ccc(I)cc3)C(=O)O)C(=O)O)CCN(CC(=O)O)CC2)CC1)C(=O)O)C(=O)O (stereo partly drawn) [[^111In]In-PSMA-NAT-DA1, metal not drawn]
radioactivity in the eluate (in words) ([1]; left to stand in HSA solution (45 mg/mL)): significantly high | radioactivity in the eluate (in words) ([1]; left to stand in PBS): no significant radioactivity | tumor/kidney ratio [2]: exceeded 1
